The numbers were not newly measured in patent US20230096856A1, “COMBINED TREATMENT REGIMEN OF […]/SEDATION WITH ADMINISTRATION OF P[…] ASSOCIATED WITH REDUCTION IN NEUROP[…]” (priority 2021, published 2023), which cites them from elsewhere.

Chains of the proteins cited; added tags and fusions are not shown.
UniProt P08908, whole entry, species assumed: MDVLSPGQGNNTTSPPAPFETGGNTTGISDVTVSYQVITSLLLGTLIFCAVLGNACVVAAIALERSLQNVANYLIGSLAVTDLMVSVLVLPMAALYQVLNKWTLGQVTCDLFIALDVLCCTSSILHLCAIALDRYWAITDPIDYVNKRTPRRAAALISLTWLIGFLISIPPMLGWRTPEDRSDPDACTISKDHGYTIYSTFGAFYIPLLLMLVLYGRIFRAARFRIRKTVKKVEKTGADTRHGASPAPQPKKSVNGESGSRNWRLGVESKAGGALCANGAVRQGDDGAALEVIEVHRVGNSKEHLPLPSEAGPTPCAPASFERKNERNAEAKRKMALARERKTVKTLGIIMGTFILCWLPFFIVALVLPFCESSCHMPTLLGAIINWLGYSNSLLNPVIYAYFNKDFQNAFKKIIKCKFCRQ
UniProt P28223, whole entry: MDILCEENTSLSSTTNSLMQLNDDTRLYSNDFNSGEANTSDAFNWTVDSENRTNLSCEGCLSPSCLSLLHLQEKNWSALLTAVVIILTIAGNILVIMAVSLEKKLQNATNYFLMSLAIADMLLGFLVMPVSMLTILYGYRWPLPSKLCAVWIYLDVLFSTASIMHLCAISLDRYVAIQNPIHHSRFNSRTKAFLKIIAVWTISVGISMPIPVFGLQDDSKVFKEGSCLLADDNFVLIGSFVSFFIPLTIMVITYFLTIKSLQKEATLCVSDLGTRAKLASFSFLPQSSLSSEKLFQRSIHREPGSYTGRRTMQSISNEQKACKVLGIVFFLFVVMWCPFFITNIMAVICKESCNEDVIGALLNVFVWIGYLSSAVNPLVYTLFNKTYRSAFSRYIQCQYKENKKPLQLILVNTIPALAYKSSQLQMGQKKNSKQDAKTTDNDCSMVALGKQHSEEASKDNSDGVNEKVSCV
UniProt P28221, whole entry, species assumed: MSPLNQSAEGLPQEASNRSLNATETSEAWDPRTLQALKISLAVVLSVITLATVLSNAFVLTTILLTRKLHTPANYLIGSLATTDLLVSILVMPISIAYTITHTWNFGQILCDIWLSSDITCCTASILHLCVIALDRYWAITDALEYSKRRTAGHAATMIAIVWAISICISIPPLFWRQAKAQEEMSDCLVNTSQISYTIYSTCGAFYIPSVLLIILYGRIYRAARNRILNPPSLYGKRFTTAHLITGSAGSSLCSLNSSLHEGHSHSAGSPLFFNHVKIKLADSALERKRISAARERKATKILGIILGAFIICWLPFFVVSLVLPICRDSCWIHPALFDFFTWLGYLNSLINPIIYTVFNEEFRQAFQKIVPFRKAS
UniProt P50406, whole entry, species assumed: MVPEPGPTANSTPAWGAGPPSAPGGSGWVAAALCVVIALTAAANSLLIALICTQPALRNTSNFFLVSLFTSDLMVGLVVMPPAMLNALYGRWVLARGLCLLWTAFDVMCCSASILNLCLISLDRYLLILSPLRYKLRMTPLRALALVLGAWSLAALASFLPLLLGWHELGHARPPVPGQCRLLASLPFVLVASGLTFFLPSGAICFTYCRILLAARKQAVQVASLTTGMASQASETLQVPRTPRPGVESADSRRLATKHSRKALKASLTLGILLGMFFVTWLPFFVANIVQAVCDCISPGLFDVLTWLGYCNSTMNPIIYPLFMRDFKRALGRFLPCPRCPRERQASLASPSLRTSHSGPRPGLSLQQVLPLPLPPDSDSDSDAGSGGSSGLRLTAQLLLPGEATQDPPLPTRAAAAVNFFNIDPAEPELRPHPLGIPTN
UniProt P34969, whole entry, species assumed: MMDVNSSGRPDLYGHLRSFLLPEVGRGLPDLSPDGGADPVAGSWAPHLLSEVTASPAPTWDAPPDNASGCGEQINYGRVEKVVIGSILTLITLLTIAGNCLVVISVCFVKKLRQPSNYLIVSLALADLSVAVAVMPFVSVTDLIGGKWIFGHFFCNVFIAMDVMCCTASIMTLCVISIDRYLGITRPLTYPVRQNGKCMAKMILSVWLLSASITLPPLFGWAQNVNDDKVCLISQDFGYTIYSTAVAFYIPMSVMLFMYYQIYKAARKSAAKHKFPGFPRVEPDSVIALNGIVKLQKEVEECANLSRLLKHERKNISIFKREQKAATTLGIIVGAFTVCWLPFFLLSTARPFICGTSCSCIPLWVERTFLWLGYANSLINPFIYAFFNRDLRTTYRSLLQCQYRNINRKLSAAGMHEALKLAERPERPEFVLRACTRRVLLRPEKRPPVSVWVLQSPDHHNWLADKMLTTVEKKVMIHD

“Also recorded” adds a separate entry of the source.

Targets include 5-HT1a (Homo sapiens, UniProt P08908); 5HT2a (Homo sapiens, UniProt P28223); 5-HT1d (Homo sapiens, UniProt P28221); 5-HT6 (Homo sapiens, UniProt P50406); 5-HT7 (Homo sapiens, UniProt P34969).

On to `COc1ccc2[nH]cc(CCN(C)C)c2c1` [5-MeO-DMT, 5-5-Methoxy-N,N-dimethyltryptamine], for which the “affinity for 5-HT1a” value on 5-HT1a is given as “high affinity”. At 5HT2a, the “affinity for 5HT2a” value is on record as “high affinity”. For the same molecule, the “affinity for 5-HT1d” value on 5-HT1d is given as “lessor affinity”. In addition, at 5-HT6, the “affinity for 5-HT6” value is listed as “lessor affinity”. Further, the “affinity for 5-HT7” value at 5-HT7 was “lessor affinity; also recorded: shows binding activity”.
